The text below walks through data of patent US4710564A, “Anthracycline compounds” (Microbial Chemistry Research Foundation, priority 1985, dated 1987).

For one test, the system named is P388 leukemia. The experiment in a line: Antitumor activity against P388 leukemia in mice, i.p. administration (T/C, therapeutic index). Type of test: in vivo, CDF1 mice. The conditions noted are these: maximum tolerated dose/dose for 130% T/C.
Test [1] has as its system Adriamycin-resistant P 388 leukemia cells (P 388/ADR). The experiment in a line: Cytotoxic activity against Adriamycin-resistant P 388 leukemia cells. The format is cell-based. The conditions noted are these: for IC50 P388/ADR: Adriamycin-resistant P388 cells, cell number on day 2; for R/S: IC50 P388/ADR over IC50 P388/S, 2880 min.
The test system of test [2] is P 388 leukemia. The conditions noted are these: i.v.; maximum tolerated dose/dose for 130% T/C.
Test [3] relates to P 388 leukemia. The following applies: oral; maximum tolerated dose/dose for 130% T/C.

In brackets after ≈: the same amount, converted by molar mass. Like-named read-outs stand apart in the source and are kept apart here.

Turning to `CCC1(O)Cc2cc3c(c(O)c2C(OC2CC(N4CCOCC4)C(O)C(C)O2)C1)C(=O)c1c(O)cccc1C3=O` (stereo not shown) [3'-deamino-3'-(4-morpholinyl)-R20Y5], the Therapeutic index in the test with P388 leukemia was 5.2; in the test with P 388 leukemia [2] it was 6.5; in the test with P 388 leukemia [3], 7.4. The “IC50 P388/ADR” value in test [1] was found to be 0.15 µg/mL (≈ 0.271 µM). This molecule also returned a R/S in test [1] of 1.5.
On to `CCC1(O)Cc2c(O)c3c(c(O)c2C(OC2CC(N4CCOCC4)C(O)C(C)O2)C1)C(=O)c1c(O)cccc1C3=O` (stereo not shown) [3'-deamino-3'-(4-morpholinyl)-R20X], for which the results for the Therapeutic index in the test with P388 leukemia, with P 388 leukemia [2] and in the test on P 388 leukemia [3] were 10.7, 1.6 and 11, respectively. In addition, the “IC50 P388/ADR” value in test [1] is 0.038 µg/mL (≈ 0.0667 µM). Besides, in test [1], the R/S was found to be 1.15.
